From publication PMC10674987, “Sweet Cherry Extract as Permeation Enhancer of Tyrosine Kinase Inhibitors: A Promising Prospective for Future Oral Anticancer Therapies” (Pharmaceuticals, 2023)

System: Caco-2 monolayer
Assay: Caco-2 monolayer permeability to albumin
Format: in vitro ADME, human
Details: 1 mg/mL HSA in HBSS, 2 h, A-B
Method: Caco-2 cells were seeded at a density of 2 × 10^4 on Transwell supports (0.4 µm pore polycarbonate membrane, 6.5 mm) and incubated overnight in a controlled atmosphere of 37 °C and 5% of CO2. The following day, the medium was changed to remove floating cells and fresh pre-warmed DMEM 20% was added (300 µL in the apical compartment and 1200 µL in the basal one). Cells were cultured for approximately 18–21 days in order to ensure that the cellular monolayers differentiated and many transport proteins and brush border hydrolases were expressed. Media were changed every 2–3 days.
Due to its large molecular size, human serum albumin (HSA) was used as a probe to conduct experiments focusing on the dimensions of drug cargoes. […] Finally, the amount of HSA that passed across the Caco-2 monolayer was quantified using the QuantiPro™ BCA Assay Kit (Sigma Aldrich S.r.l., Milan, Italy) with few modifications of the manufacturer’s protocol. Because of the possible complexing phaenomena between the cherry extract and HSA, primarily via hydrogen bonds and van der Waals forces, the quantification of HSA in the absence and presence of SCE was performed using specific calibration curves. […] Absorbance was quantified at 562 nm using a Multiskan SkyHigh Microplate Spectrophotometer (ThermoFisher, Waltham, MA, USA) after incubation for 2 h at 37 °C.

## HSA: human serum albumin (66.4 kDa), macromolecular tracer
+SCE [1 mg/mL]
  HSA detected in the basolateral compartment: 104.887 ± 2.440 µg/mL
Free
  HSA detected in the basolateral compartment: 108.760 ± 0.978 µg/mL
